Entries after “also recorded” stand apart in the source; their conditions may differ.
Columns and labels:
[1] = tested on: MC3T3 cells; assay: Alkaline phosphatase (ALP) assay of released BMP-2; assay type: cell-based; details: BMP-2 released from PUR scaffold
Description: (§1) BMP-2 is known to stimulate alkaline phosphatase (ALP) expression and mineralization of MC3T3 cells. To evaluate the bioactivity of the released BMP-2, both ALP and mineralization assays (Von Kossa staining) were carried out. Based on the release profile, PUR/BMP-2 release samples from day 1 to 8 and PUR/PLGA-L-BMP-2 from day 1 to 10 were collected for the analysis respectively.
(§2) BMP-2 was reconstituted in PBS according to the manufacturer's instructions and mixed with heparin and glucose. The resulting solution was lyophilized to yield a dry powder, which was added to the hardener component of the PUR scaffold prior to mixing. Subsequently, Desmodur N3300A polyisocyanate (hexamethylene diioscyanate trimer) was added to the hardener component to prepare the PUR scaffold using published techniques. The PUR scaffolds each contained 2.5 μg BMP-2, 2 wt-% glucose (excipient), and 0.05 wt % heparin to stabilize the BMP-2. In some cases (PLGA-L and PLGA-S), BMP-2 was microencapsulated in PLGA (efficiency 80%) prior to incorporation in the polyurethane scaffold. In vitro release of BMP-2 in PBS at 37° C. was measured from 0 to 21 days by ELISA. The bioactivity of the released BMP-2 was determined by measuring alkaline phosphatase expression by MC3T3 cells incubated in released BMP-2 (FIG. 24).

[2] = In vitro release of BMP-2 from PUR scaffolds (ELISA); assay type: physicochemical
Description: Small pieces of PUR scaffold incorporated with BMP-2 powder or PLGA particles encapsulated with BMP-2 were incubated in a-MEM containing 1% BSA under 37° C., and the medium was changed every 24 hours. Immunoassay (Human BMP-2 ELISA kit, from R&D systems) was adopted to determine the amount of BMP-2 released from the PUR scaffolds. […] Based on BSA-FITC release data, further decreasing the size of the PLGA particles is expected to achieve a more sustained profile, and the experiment is undergoing.
as §2
Growth factors released from two-component polyurethanes with tunable release kinetics enhance new bone formation. Another advantage of PUR scaffolds is that the two-component reactive two-component molding process enables customization using added biologics (e.g., growth factors and/or antibiotics) at the point of care. […] In order to modulate the release kinetics, rhBMP2 (60 μg/ml) was incorporated in PUR scaffolds by either direct addition of a labile powder or by encapsulation in large (L) or small (S) PLGA microspheres prior to incorporation in the scaffold. […]

[3] = tested on: MC3T3 cells; assay: Von Kossa mineralization assay of released BMP-2; assay type: cell-based; details: BMP-2 released from PUR scaffolds
Description: as §1

BMP-2: recombinant human bone morphogenetic protein-2
in vitro bioactivity of released BMP-2 (ALP expression) [1]: stimulated ALP expression; also recorded: significantly greater than that of the negative control (no BMP-2) and less than that of the positive control
in vitro bioactivity of released BMP-2 (ALP expression) ([1]; listed as rhBMP2): comparable to that of fresh rhBMP2
duration of sustained BMP-2 release ([2]; BMP-2 encapsulated in 80 μm PLGA microspheres embedded in PUR): up to 15 days
BMP-2 release profile ([2]; BMP-2 incorporated in PUR scaffolds as a powder): a burst release occurred on the first day and little BMP-2 was release after day 8
duration of sustained release of rhBMP2 ([2]; labile powder in PUR): up to 21 days
bioactivity by Von Kossa mineralization assay [3]: bioactive
